The chains behind the UniProt entries cited, without tags or fusion partners. Where a name states a change or a piece, a line headed by the entry shows the natural chain unless it says otherwise.
UniProt Q96PN6: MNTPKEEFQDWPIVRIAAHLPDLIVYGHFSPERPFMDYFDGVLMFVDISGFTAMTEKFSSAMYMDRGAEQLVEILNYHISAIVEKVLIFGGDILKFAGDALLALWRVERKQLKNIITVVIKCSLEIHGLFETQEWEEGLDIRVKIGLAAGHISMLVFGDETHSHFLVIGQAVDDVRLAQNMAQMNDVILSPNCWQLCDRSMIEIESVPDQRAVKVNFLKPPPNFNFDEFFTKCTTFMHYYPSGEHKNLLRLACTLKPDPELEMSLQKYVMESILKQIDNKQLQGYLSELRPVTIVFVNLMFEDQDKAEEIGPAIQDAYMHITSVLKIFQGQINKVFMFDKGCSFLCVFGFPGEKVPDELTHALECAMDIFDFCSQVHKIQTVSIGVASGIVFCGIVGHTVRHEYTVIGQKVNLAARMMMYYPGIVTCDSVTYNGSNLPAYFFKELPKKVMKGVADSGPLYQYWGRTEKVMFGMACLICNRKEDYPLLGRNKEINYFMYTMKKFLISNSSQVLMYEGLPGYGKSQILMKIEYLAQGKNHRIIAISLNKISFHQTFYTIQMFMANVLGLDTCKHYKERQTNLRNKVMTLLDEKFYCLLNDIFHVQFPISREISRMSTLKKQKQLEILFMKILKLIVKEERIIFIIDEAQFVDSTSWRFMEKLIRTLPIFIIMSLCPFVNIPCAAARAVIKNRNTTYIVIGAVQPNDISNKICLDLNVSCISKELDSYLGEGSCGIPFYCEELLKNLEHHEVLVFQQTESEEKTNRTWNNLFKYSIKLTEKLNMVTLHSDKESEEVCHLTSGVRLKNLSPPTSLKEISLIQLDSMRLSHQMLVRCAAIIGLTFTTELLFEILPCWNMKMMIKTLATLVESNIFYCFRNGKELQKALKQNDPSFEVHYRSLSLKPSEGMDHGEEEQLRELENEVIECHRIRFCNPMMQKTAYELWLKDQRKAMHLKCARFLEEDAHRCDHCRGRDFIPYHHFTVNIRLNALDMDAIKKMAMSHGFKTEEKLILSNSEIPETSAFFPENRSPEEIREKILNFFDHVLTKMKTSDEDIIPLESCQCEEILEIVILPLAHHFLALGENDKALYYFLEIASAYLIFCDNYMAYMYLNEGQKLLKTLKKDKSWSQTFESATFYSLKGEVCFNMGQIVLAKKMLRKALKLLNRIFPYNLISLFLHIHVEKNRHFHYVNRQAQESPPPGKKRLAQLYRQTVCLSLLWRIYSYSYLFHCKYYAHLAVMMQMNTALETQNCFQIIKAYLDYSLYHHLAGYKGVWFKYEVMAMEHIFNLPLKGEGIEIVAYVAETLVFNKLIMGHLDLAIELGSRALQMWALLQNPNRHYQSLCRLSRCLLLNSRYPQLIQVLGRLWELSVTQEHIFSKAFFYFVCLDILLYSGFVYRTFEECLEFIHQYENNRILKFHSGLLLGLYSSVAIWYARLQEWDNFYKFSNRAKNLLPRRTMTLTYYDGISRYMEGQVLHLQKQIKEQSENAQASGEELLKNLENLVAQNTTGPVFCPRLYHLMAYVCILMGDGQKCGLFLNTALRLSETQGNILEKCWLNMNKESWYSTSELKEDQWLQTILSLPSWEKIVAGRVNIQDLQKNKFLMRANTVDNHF

This experiment concerns the target purified recombinant human sAC protein (Homo sapiens, UniProt Q96PN6). The experiment is described as follows: biochemical. Type of experiment: biochemical. As to conditions: 1 mM ATP, 2 mM CaCl2, 4 mM MgCl2, 40 mM NaHCO3. As to the method:
Assays for sAC activity using purified protein were performed in 100 μl reactions containing 4 mM MgCl2, 2 mM CaCl2, 1 mM ATP, 40 mM NaHCO3, 50 mM Tris pH 7.5, and 3 mM DTT. Each reaction contained ˜1,000,000 counts of α-^32P labeled ATP.
All in vitro adenylyl cyclase activity assays were performed via the “two-column” method measuring the conversion of [α-^32P] ATP into [^32P] cAMP, as previously described [References 81, 82]. Briefly, human sACt protein [Reference 21] was incubated in buffer containing 50 mM Tris-HCl, pH 7.5, 4 mM MgCl2, 2 mM CaCl2, 1 mM ATP, 3 mM DTT, 40 mM NaHCO3 in the presence of the indicated concentrations of different sAC inhibitors or vehicle (DMSO).
A word on the IC50: it is the concentration at which inhibition is half-maximal. As to `Cn1cc(Cn2cccn2)c(-c2cc(Cl)nc(N)n2)n1` [Example 148, 4-chloro-6-[1-methyl-4-(pyrazol-1-ylmethyl)pyrazol-3-yl]pyrimidin-2-amine], the IC50 is 378 nM.
With `Cn1cc(Cc2cccc3ccccc23)c(-c2cc(Cl)nc(N)n2)n1` [Example 30] the figure was 50 nM.
With `Cn1nc(-c2cc(Cl)nc(N)n2)c(Cc2ccccc2)c1C(=O)OCc1ccccc1` [Example 35, benzyl 5-(2-amino-6-chloro-pyrimidin-4-yl)-4-benzyl-2-methyl-pyrazole-3-carboxylate] the figure was 0.826 nM.
On to `COC(=O)C1CCN(CCOc2ccccc2Cc2cn(C)nc2-c2cc(Cl)nc(N)n2)CC1` [Example 96], for which the IC50 was found to be 5 nM.
With `COC(=O)Nc1nc(Cl)cc(-c2nn(C)c(C)c2Cc2ccccc2)n1` [Example 90, methyl N-[4-(4-benzyl-1,5-dimethyl-pyrazol-3-yl)-6-chloro-pyrimidin-2-yl]carbamate] the figure was approximately 1000 nM.
With `Cn1cc(Cc2c(Cl)cccc2OCCN2CCNC(=O)C2)c(-c2cc(Cl)nc(N)n2)n1` [Example 126] the figure was 4 nM; with `CN(C)CCOCc1c(Cc2ccccc2)c(-c2cc(Cl)nc(N)n2)nn1C` [Example 129], 300 nM.
The figure for `COc1ccccc1Cc1c(-c2cc(Cl)nc(N)n2)nn(C)c1C` [Example 146] is 520 nM; for `CN1CCC(OC(=O)c2cccc(Cc3cn(C)nc3-c3cc(Cl)nc(N)n3)c2)CC1` [Example 58] it is 330 nM; for `Cn1cc(Cc2cccc3cnn(C)c23)c(-c2cc(Cl)nc(N)n2)n1` [Example 31] it is 250 nM.
Take `Cn1cc(Cc2ccccc2OCCN2C[C@@H]3C[C@H]2CO3)c(-c2cc(Cl)nc(N)n2)n1` [Example 93]: the IC50 stood at 10 nM.
Take `Nc1nc(Cl)cc(-c2nn(C(F)F)cc2Cc2ccccc2OC(F)(F)F)n1` [Example 160]: the IC50 came out at 60 nM.
The figure for `COCCNC(=O)c1cccc(Cc2cn(C)nc2-c2cc(Cl)nc(N)n2)c1` [Example 64] is approximately 1000 nM; for `Cn1cc(Cc2cscn2)c(-c2cc(Cl)nc(N)n2)n1` [Example 26] it is approximately 1000 nM; for `Nc1nc(Cl)cc(-c2nn(C(F)F)cc2Cc2ccccc2OCCN2CCOCC2)n1` [Example 78, 4-chloro-6-[1-(difluoromethyl)-4-[[2-(2-morpholinoethoxy)phenyl]methyl]pyrazol-3-yl]pyrimidin-2-amine] it is 3 nM.
As for `Nc1nc(Cl)cc(-c2nn(C(F)F)cc2Cc2cc(CN3CCOCC3)ccc2C2CC2)n1` [Example 157, 4-chloro-6-[4-[[2-cyclopropyl-5-(morpholinomethyl)phenyl]methyl]-1-(difluoromethyl)pyrazol-3-yl]pyrimidin-2-amine], the IC50 is 6 nM.
Regarding `CC(=O)Oc1ccc(COC(=O)c2c(Cc3ccccc3)c(-c3cc(Cl)nc(N)n3)nn2C)cc1` [Example 66], the IC50 worked out at 26 nM.
On to `CC(=O)OCc1c(Cc2ccccc2)c(-c2cc(Cl)nc(N)n2)nn1C` [Example 50, [5-(2-amino-6-chloro-pyrimidin-4-yl)-4-benzyl-2-methyl-pyrazol-3-yl]methyl acetate], for which the IC50 came out at 310 nM.
As for `Cn1nc(-c2cc(Cl)nc(N)n2)c(Cc2ccccc2)c1C(=O)OCc1ccnc(N)c1` [Example 68], the IC50 worked out at 0.46 nM.
With `Nc1nc(Cl)cc(-c2nn(C(F)F)cc2Cc2ccccc2OCCN2CC3(COC3)C2)n1` [Example 122] the figure was 5 nM; with `Cn1cc(Cc2cccc(Oc3ccccc3)c2)c(-c2cc(F)nc(N)n2)n1` [Example 72, fluoro-6-[1-methyl-4-[(3-phenoxyphenyl)methyl]pyrazol-3-yl]pyrimidin-2-amine], approximately 1000 nM.
On to `CN1CCN(CCOc2ccccc2Cc2cn(C(F)F)nc2-c2cc(Cl)nc(N)n2)CC1` [Example 91], for which the IC50 turned out to be 18 nM.
The figure for `COCCOCCOCCOc1ccccc1Cc1cn(C)nc1-c1cc(Cl)nc(N)n1` [Example 128] is 15 nM; for `Cn1cc(Cc2ccccc2OCCN2CCOCC2)c(-c2cc(C#N)nc(N)n2)n1` [Example 99, 2-amino-6-[1-methyl-4-[[2-(2-morpholinoethoxy)phenyl]methyl]pyrazol-3-yl]pyrimidine-4-carbonitrile] it is 100 nM.
Turning to `CN1CCN(CCOC(=O)c2ccccc2Cc2cn(C)nc2-c2cc(Cl)nc(N)n2)CC1` [Example 53], the 50% inhibitory concentration (IC50) stood at 122 nM.
The figure for `CN(C)CCOC(=O)c1c(Cc2ccccc2)c(-c2cc(Cl)nc(N)n2)nn1C` [Example 41] is 8 nM.
The figure for `COC(=O)COc1ccccc1Cc1cn(C)nc1-c1cc(Cl)nc(N)n1` [Example 127, methyl 2-[2-[[3-(2-amino-6-chloro-pyrimidin-4-yl)-1-methyl-pyrazol-4-yl]methyl]phenoxy]acetate] is 10 nM; for `CN1CCN(CCCOc2ccccc2Cc2cn(C(F)F)nc2-c2cc(Cl)nc(N)n2)CC1` [Example 79] it is 5 nM; for `Nc1nc(Cl)cc(-c2nn(C(F)(F)F)cc2Cc2ccccc2)n1` [Example 22] it is 160 nM.
With `Cn1cc(Cc2ccccc2OCCN2CC3CC(C2)O3)c(-c2cc(Cl)nc(N)n2)n1` [Example 88, 4-chloro-6-[1-methyl-4-[[2-[2-(6-oxa-3-azabicyclo[3.1.1]heptan-3-yl)ethoxy]phenyl]methyl]pyrazol-3-yl]pyrimidin-2-amine] the figure was 5 nM.
`Nc1nc(Cl)cc(-c2nn(C(F)F)cc2Cc2cc(C(=O)NCc3ccccc3)ccc2OC2CCC2)n1` [Example 153]: the concentration for half-maximal inhibition (IC50) is 300 nM.
In the case of `Cn1cc(Cc2ccccc2OCCN2CCNC(=O)C2)c(-c2cc(Cl)nc(N)n2)n1` [Example 119], the 50% inhibitory concentration (IC50) is 12 nM.
For the compound `Nc1nc(Cl)cc(-c2n[nH]cc2Cc2ccccc2OCCN2CCOCC2)n1` [Example 83, 4-chloro-6-[4-[[2-(2-morpholinoethoxy)phenyl]methyl]-1H-pyrazol-3-yl]pyrimidin-2-amine], the IC50 was approximately 1000 nM.
The figure for `Cn1cc(Cc2ccccc2OCC(=O)OCCN2CCOCC2)c(-c2cc(Cl)nc(N)n2)n1` [Example 142] is 40 nM; for `Cn1cc(Cc2ccccc2OCCN2C[C@H](O)[C@@H](O)C2)c(-c2cc(Cl)nc(N)n2)n1` [Example 151] it is 30 nM; for `Cc1cc(-c2nn(C)cc2Cc2ccccc2OCCN2CCOCC2)nc(N)n1` [Example 121, 4-methyl-6-[1-methyl-4-[[2-(2-morpholinoethoxy)phenyl]methyl]pyrazol-3-yl]pyrimidin-2-amine] it is approximately 1000 nM.
With `Cn1nc(-c2cc(Cl)nc(N)n2)c(Cc2ccccc2)c1COCc1ccccc1` [Example 70] the figure was 26 nM; with `Cn1cc(Cc2nccs2)c(-c2cc(Cl)nc(N)n2)n1` [Example 21], 260 nM; with `Cc1oc(=O)oc1COC(=O)[C@@H]1COCCN1CCOc1ccccc1Cc1cn(C(F)F)nc1-c1cc(Cl)nc(N)n1` [Example 166, (5-methyl-2-oxo-1,3-dioxol-4-yl)methyl (3S)-4-[2-[2-[[3-(2-amino-6-chloro-pyrimidin-4-yl)-1-(difluoromethyl)pyrazol-4-yl]methyl]phenoxy]ethyl]morpholine-3-carboxylate], 50 nM.
The figure for `CN1CCC(COC(=O)c2c(Cc3ccccc3)c(-c3cc(Cl)nc(N)n3)nn2C)CC1` [Example 65] is 10 nM.
As to `CN1CCN(C(=O)c2c(Cc3ccccc3)c(-c3cc(Cl)nc(N)n3)nn2C)CC1` [Example 36], the IC50 was approximately 1000 nM.
As to `CC(=O)N(Cc1cn(C)nc1-c1cc(Cl)nc(N)n1)C1CCC1` [Example 110], the half-maximal inhibitory concentration (IC50) came to 410 nM.
The figure for `Cn1cc(Cc2ccccc2OCCN2CCOCC2)c(-c2nc(N)nc(Cl)c2F)n1` [Example 102] is 120 nM.
With `Nc1nc(Cl)cc(-c2nn(C(F)F)cc2Cc2ccccc2OCCN2CCC(O)(C(F)F)CC2)n1` [Example 86] the figure was 3 nM; with `CN1CCC(COC(=O)c2cccc(Cc3cn(C)nc3-c3cc(Cl)nc(N)n3)c2)CC1` [Example 60], 160 nM.
Regarding `Nc1nc(Cl)cc(-c2nn(C(F)F)cc2Cc2cc(C(=O)NCc3ccccc3)ccc2C2CC2)n1` [Example 105, 3-[[3-(2-amino-6-chloro-pyrimidin-4-yl)-1-(difluoromethyl)pyrazol-4-yl]methyl]-N-benzyl-4-cyclopropyl-benzamide], the half-maximal inhibitory concentration (IC50) came to 2 nM.
With `Cn1nc(-c2cc(Cl)nc(N)n2)c(Cc2ccccc2)c1C(=O)OCC1COC1` [Example 39] the figure was 3.8 nM.
With `Cc1cn(Cc2ccccc2)c(-c2cc(Cl)nc(N)n2)n1` [Example 115] the figure was approximately 1000 nM; with `Nc1nc(Cl)cc(-c2nn(C(F)F)cc2Cc2ccccc2OCCN(CCO)CC(=O)O)n1` [Example 173, 2-[2-[2-[[3-(2-amino-6-chloro-pyrimidin-4-yl)-1-(difluoromethyl)pyrazol-4-yl]methyl]phenoxy]ethyl-(2-hydroxyethyl)amino]acetic acid], 8 nM.
Regarding `Cc1oc(=O)oc1COC(=O)[C@H]1COCCN1CCOc1ccccc1Cc1cn(C(F)F)nc1-c1cc(Cl)nc(N)n1` [Example 163], the half-maximal inhibitory concentration (IC50) came out at 12 nM.
As for `Cn1cc(S(=O)(=O)c2ccccc2)c(-c2cc(Cl)nc(N)n2)n1` [Example 111], the IC50 is 3340 nM.
With `CN1CCC(O)(CCOc2ccccc2Cc2cn(C(F)F)nc2-c2cc(Cl)nc(N)n2)CC1` [Example 125] the figure was 3 nM; with `CN1CCC(COC(=O)c2ccccc2Cc2cn(C)nc2-c2cc(Cl)nc(N)n2)C1` (centres unmarked) [Example 62], 52 nM.
